According to PubChem BioAssay AID1511 (Johns Hopkins Ion Channel Center, 2009):
This is a selection; strong and weak results do not stand in their true shares. The source made the active and inactive calls.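 How the source made its calls: active means activation above the mean of controls blocked by dofetilide plus 5 SD; inactive means the rest.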

Chains of the proteins cited; added tags and fusions are not shown.
UniProt Q12809, whole entry: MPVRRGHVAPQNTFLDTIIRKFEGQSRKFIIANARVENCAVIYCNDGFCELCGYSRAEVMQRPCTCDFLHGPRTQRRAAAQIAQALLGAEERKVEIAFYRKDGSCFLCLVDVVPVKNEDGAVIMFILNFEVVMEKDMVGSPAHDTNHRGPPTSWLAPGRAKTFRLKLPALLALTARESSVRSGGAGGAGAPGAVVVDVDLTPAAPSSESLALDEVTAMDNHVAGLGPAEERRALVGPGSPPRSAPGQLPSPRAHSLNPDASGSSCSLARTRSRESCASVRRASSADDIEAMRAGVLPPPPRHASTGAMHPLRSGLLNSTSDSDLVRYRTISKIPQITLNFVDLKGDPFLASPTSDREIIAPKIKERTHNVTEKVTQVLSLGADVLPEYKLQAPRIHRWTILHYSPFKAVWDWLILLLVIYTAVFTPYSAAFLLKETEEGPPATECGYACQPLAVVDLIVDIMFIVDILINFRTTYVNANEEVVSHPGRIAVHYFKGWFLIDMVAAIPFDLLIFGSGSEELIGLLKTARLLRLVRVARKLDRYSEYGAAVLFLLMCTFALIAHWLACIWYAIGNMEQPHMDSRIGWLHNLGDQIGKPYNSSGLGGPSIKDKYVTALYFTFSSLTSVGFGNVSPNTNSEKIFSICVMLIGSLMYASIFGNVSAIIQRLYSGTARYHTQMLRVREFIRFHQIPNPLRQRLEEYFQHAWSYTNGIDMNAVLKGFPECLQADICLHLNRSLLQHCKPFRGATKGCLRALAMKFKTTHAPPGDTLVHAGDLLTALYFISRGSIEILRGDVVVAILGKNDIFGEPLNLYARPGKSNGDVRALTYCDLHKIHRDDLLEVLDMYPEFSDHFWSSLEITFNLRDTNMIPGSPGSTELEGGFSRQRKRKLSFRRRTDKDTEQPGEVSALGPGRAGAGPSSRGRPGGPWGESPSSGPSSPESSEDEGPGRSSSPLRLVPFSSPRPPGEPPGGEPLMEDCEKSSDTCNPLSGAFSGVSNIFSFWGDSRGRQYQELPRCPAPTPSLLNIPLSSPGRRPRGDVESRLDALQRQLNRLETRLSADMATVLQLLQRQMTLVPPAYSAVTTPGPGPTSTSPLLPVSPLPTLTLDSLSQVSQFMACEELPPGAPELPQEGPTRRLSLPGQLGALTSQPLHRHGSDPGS

biological target: Voltage-gated inwardly rectifying potassium channel KCNH2 (Homo sapiens) (UniProt Q12809); assay: PubChem AID 1511; settings: CHO-hERG, FluxOR thallium flux, dofetilide IC70 present; at 10 µM; active compounds read high;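 further: thallium influx through hERG after potassium depolarization seen as dye fluorescence rise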

| SMILES | activation (rescue from dofetilide block), less the hit threshold |
| --- | --- |
| CP(=O)(Nc1ccccc1F)Oc1ccccc1 (centres undefined) | inactive: -7.4% |
| CC(C)c1ccc(OP(C)(=O)Nc2ccc(SC(F)(F)F)cc2)cc1 (centres undefined) | inactive: -4.38% |
| O=[N+]([O-])c1cc([N+](=O)[O-])c(Nc2ccccn2)c([N+](=O)[O-])c1 | inactive: -15.9% |
| Cc1c(NP(C)(=O)Oc2ccc(C(C)C)cc2)c(=O)n(-c2ccccc2)n1C (centres undefined) | inactive: -4.1% |
| COc1ccccc1OP(C)(=O)Nc1ccc(C)cc1C (centres undefined) | inactive: -12% |
| CP(=O)(Nc1ccccn1)Oc1ccccc1 (centres undefined) | inactive: -12.2% |
| CCc1ccc(OP(C)(=O)O)cc1 | inactive: -6.82% |
| COc1ccccc1OP(C)(=O)Nc1ccc(Br)cc1 (centres undefined) | inactive: -12.3% |
| COc1ccc(OP(C)(=O)Nc2ccccn2)cc1 (centres undefined) | inactive: -10.1% |
| CN(C)CCOC(=O)C(O)(c1ccccc1)C1CCCC1 (centres undefined) | inactive: -0.29% |
| Cc1nc2ccc3ccccc3c2o1.O=[N+]([O-])c1cc([N+](=O)[O-])c(O)c([N+](=O)[O-])c1 | inactive: -17% |
| CP(=O)(OCCOc1ccccc1)OCCOc1ccccc1 | inactive: -5.38% |
| CP(=O)(Nc1ccc(Cl)cc1Cl)Oc1ccccc1 (centres undefined) | inactive: -7.36% |
| Cc1cc(C)cc(OP(C)(=O)Nc2cccc(C(F)(F)F)c2)c1 (centres undefined) | inactive: -6.86% |
| COc1ccccc1OP(C)(=O)Nc1ccc(C)c(C)c1 (centres undefined) | inactive: -2.1% |
| COc1ccc(OP(C)(=O)Nc2ccccc2Br)cc1 (centres undefined) | inactive: -7.42% |
| Nc1ccc2c(ccc3cccnc32)n1.O=[N+]([O-])c1cc([N+](=O)[O-])c(O)c([N+](=O)[O-])c1 | inactive: -1.42% |
| CCOC(=O)c1ccc(NP(C)(=O)Oc2ccc(Cl)cc2)cc1 (centres undefined) | inactive: -8.12% |
| CP(=O)(OC12CC3CC(CC(C3)C1)C2)OC12CC3CC(CC(C3)C1)C2 | inactive: -12.2% |
| CC(C)(C)c1ccc(OP(C)(=O)O)cc1 | inactive: -4.92% |
| COc1ccccc1OP(C)(=O)Nc1ccccc1Br (centres undefined) | active: 6.14% |
| CP(=O)(Nc1ccc(Cl)cc1)Oc1ccc(F)cc1 (centres undefined) | inactive: -8.29% |
| CN(C)C(=O)c1c([N+](=O)[O-])cc([N+](=O)[O-])cc1[N+](=O)[O-] | inactive: -6.67% |
| COc1ccc(OP(C)(=O)Nc2ccc(Br)cc2)cc1 (centres undefined) | inactive: -1.78% |
| CCN(CC)CC(O)COC(=O)C(O)(c1ccccc1)C1CCCCC1 (centres undefined) | inactive: -16.1% |
| O=C(OCCCN1CCCC1)C(O)(c1ccccc1)C1CCCCC1 (centres undefined) | inactive: -7.47% |
| COc1ccccc1OP(C)(=O)Nc1c(C)n(C)n(-c2ccccc2)c1=O (centres undefined) | inactive: -2.24% |
| CCc1ccc(OP(C)(=O)Nc2cccnc2)cc1 (centres undefined) | inactive: -0.56% |
| CP(=O)(Oc1ccccc1)N1CCOC1=O (centres undefined) | inactive: -4.14% |
